Reference: patent US20130333715A1, “SHAMPOO COMPOSITIONS AND METHODS OF MAKING SAME” (The Procter & Gamble Company, priority 2012, published 2013)

Columns and labels:
[1] = Calculated conditional stability constants for chelants with Cu^+2 at specified pH; type: physicochemical
Excerpt: (§1) However, as the pH range of the present compositions are acidic (i.e., less than 7), the log alpha value (αm) is considered to be constant and approximately negligible.
(§2) The calculated stability constants for a range of chelants with Fe^+3, Cu^+2, and Ca^+2 are given below in Table 3: […]

[2] = Calculated conditional stability constants for chelants with Fe^+3 at specified pH
Excerpt: The gradual change in ligand species as pH changes can be represented using alpha (α) coefficients, defined as: [formula] […] By combining stability (K) and alpha (α) constants at a given pH, the formula below provides the effective chelating power of a chelant.

[3] = Calculated conditional stability constants for chelants with Ca^+2 at specified pH; type: physicochemical
Excerpt: as §1, §2

[4] = 1:1 complex, fully deprotonated chelant, 25° C., 0.1M ionic strength; cited from earlier work

log Conditional Stability Constant (@ pH) Cu^+2 ([1]; pH 2): −3.10
log Conditional Stability Constant (@ pH) Cu^+2 ([1]; pH 3): 0.90
log Conditional Stability Constant (@ pH) Cu^+2 ([1]; pH 4): 4.90
log Conditional Stability Constant (@ pH) Cu^+2 ([1]; pH 5): 8.88
log Conditional Stability Constant (@ pH) Cu^+2 ([1]; pH 6): 12.72
log Conditional Stability Constant (@ pH) Cu^+2 ([1]; pH 7): 16.11
log Conditional Stability Constant (@ pH) Cu^+2 ([1]; pH 8): 19.07
log Conditional Stability Constant (@ pH) Fe^+3 ([2]; pH 2): 7.10
log Conditional Stability Constant (@ pH) Fe^+3 ([2]; pH 3): 11.10
log Conditional Stability Constant (@ pH) Fe^+3 ([2]; pH 4): 15.10
log Conditional Stability Constant (@ pH) Fe^+3 ([2]; pH 5): 19.08
log Conditional Stability Constant (@ pH) Fe^+3 ([2]; pH 6): 22.92
log Conditional Stability Constant (@ pH) Fe^+3 ([2]; pH 7): 26.31
log Conditional Stability Constant (@ pH) Fe^+3 ([2]; pH 8): 29.27
log Conditional Stability Constant (@ pH) Ca^+2 ([3]; pH 2): −21.20
log Conditional Stability Constant (@ pH) Ca^+2 ([3]; pH 3): −17.20
log Conditional Stability Constant (@ pH) Ca^+2 ([3]; pH 4): −13.20
log Conditional Stability Constant (@ pH) Ca^+2 ([3]; pH 5): −9.22
log Conditional Stability Constant (@ pH) Ca^+2 ([3]; pH 6): −5.38
log Conditional Stability Constant (@ pH) Ca^+2 ([3]; pH 7): −1.99
log Conditional Stability Constant (@ pH) Ca^+2 ([3]; pH 8): 0.97
Substance: ethylenediamine-N,N′-bis(2-hydroxyphenylacetic acid) [EDDHA (EHPG)]
log K Fe [4]: 35.5
